Data reported in US20170182031A1, “REDUCING DRUG LIKING IN A SUBJECT” (Purdue Pharma, priority 2014, published 2017).

Tests used:
[1] = tested on: opioid dependent drug users; settings: Example 2
[2] = tested on: healthy, non-dependent, opioid-experienced recreational drug users; settings: HMO 30 μg/kg IV
[3] = all treatments
[4] = tested on: healthy, non-dependent, opioid-experienced recreational drug users; settings: Example 1

In the case of `CN1CC[C@]23c4c5ccc(O)c4O[C@H]2C(=O)CC[C@H]3[C@H]1C5` [HMO, Hydromorphone], the “Incidence of TEAEs” value [1] was 77.8%, the “Incidence of euphoric mood” value [1] was 33.3% and the “Incidence of feeling hot” value [1] was 22.2%. For the same compound, the Incidence of pruritus [1] was 11.1%, the “Duration of sustained decrease in pupil diameter (miosis)” value [2] was “approximately 1 hour” and the MPC [2] was 3.05 mm. For the same compound, the “Time of mean peak decrease in pupil diameter” value ([2]; post-infusion) was “approximately 0.75 hours”, the “V of HMO” value [3] was 350 to 375 L and the “Incidence of blurred vision” value [4] was 10.0%. The “Incidence of euphoric mood (TEAE)” value [4] was 73.3%, the “Incidence of feeling hot” value [4] was 46.7% and the Incidence of pruritus [4] was 40.0%. It also gave an Incidence of somnolence [4] of 60.0% and an Incidence of vomiting [4] of 13.3%.
